Measured values published in US9803021B2 (The Regents of the University of California, priority 2012, dated 2017).

Experiments:
Assay in all cases: Cell cycle analysis (PI DNA content, flow cytometry)
Format in all cases: cell-based, human
NCI-H929 = conditions: NCI-H929, 500 pM, 4 days
Method: (§1) Cells were incubated with 1 ml of hypotonic DNA staining buffer (1 mg/ml sodium citrate, 100 μg/ml PI, 20 μg/ml RNase A, and 0.3% Triton X-100 in dH2O) for 30-60 min at 4° C. in the dark. Cells were analyzed by flow cytometry and cell cycle analysis performed using FlowJo software with the Watson Model.
(§2) Cells were incubated with 1 ml of hypotonic DNA staining buffer (1 mg/ml sodium citrate, 100 μg/ml PI, 20 μg/ml RNase A, and 0.3% Triton X-100) for 30-60 minutes at 4° C. in the dark. Cells were analyzed by flow cytometry and cell cycle analysis performed using FlowJo software with the Watson Model.

ANBL-6 = conditions: ANBL-6, 500 pM, 4 days
Method: as §1, §2

U266 = conditions: U266, 500 pM, 4 days
Method: as §1, §2

OCI-My5 = conditions: OCI-My5, 500 pM, 4 days
Method: as §1, §2

MM1-144 = conditions: MM1-144, 500 pM, 4 days
Method: as §1, §2

B1: IFNβ: recombinant interferon beta, unfused (protein, UniProt P01574 22-187, looked up)
Interferon beta: MSYNLLGFLQRSSNFQCQKLLWQLNGRLEYCLKDRMNFDIPEEIKQLQQFQKEDAALTIYEMLQNIFAIFRQDSSSTGWNETIVENLLANVYHQINHLKTVLEEKLEKEDFTRGKLMSSLHLKRYYGRILHYLKAKEYSHCAWTIVRVEILRNFYFINRLTGYLRN
% G1 (NCI-H929): 41.2% | % G2/M (NCI-H929): 23.4% | % S (NCI-H929): 22.1% | >G2 (NCI-H929): 7.8% | Sub G0/G1 (NCI-H929): 37.4% | % G1 (ANBL-6): 60.5% | % G2/M (ANBL-6): 18.8% | % S (ANBL-6): 15.4% | >G2 (ANBL-6): 0.0% | Sub G0/G1 (ANBL-6): 26.1% | % G1 (U266): 58.7% | % G2/M (U266): 20.1% | % S (U266): 12.4% | >G2 (U266): 7.1% | Sub G0/G1 (U266): 17.0% | % G1 (OCI-My5): 21.8% | % G2/M (OCI-My5): 19.0% | % S (OCI-My5): 54.2% | >G2 (OCI-My5): 0.0% | Sub G0/G1 (OCI-My5): 29.5% | % G1 (MM1-144): 29.0% | % G2/M (MM1-144): 26.7% | % S (MM1-144): 33.7% | >G2 (MM1-144): 8.6% | Sub G0/G1 (MM1-144): 11.7%
